Protein sequences, listed by entry. Tags and fused reporters are not part of them. Lines headed by an entry give the natural chain unless they say otherwise; changes in a name come on top.
UniProt P47936: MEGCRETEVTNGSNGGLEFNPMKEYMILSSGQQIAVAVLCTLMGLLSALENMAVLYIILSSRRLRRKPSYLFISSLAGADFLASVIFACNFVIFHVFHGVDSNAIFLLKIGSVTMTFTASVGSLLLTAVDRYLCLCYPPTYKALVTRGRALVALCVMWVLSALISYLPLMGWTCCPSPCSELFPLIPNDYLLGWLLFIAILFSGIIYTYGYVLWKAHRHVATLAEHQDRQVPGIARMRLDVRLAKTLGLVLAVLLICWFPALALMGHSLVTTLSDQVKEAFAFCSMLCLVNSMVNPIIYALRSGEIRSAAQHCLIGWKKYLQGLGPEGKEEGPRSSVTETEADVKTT

In BindingDB's records for PubMed 10688601 (Virginia Commonwealth University, 2000):

Molecular target: Cannabinoid receptor 2 (Mus musculus, UniProt P47936)

Q: With `Cc1ccc(Cn2nc(C(=O)NC3C(C)(C)C4CC[C@@]3(C)C4)cc2-c2ccc(Cl)c(C)c2)cc1` (stereo partly specified) [N-(1,3,3-trimethylbicyclo(2.2.1)heptan-2-yl)-5-(4-chloro-3-methylphenyl)-1-(4-methylbenzyl)pyrazole-3-carboxamide] as the compound, how does the Ki read?
A: The Ki was 0.05 nM.
